Assay results reported in patent US20140072613A1, “Compositions and Methods for Treating Cutaneous Scarring” (priority 2012, published 2014).

The chains behind the UniProt entries cited, without tags or fusion partners. Where a name states a change or a piece, a line headed by the entry shows the natural chain unless it says otherwise.
UniProt Q86Z02: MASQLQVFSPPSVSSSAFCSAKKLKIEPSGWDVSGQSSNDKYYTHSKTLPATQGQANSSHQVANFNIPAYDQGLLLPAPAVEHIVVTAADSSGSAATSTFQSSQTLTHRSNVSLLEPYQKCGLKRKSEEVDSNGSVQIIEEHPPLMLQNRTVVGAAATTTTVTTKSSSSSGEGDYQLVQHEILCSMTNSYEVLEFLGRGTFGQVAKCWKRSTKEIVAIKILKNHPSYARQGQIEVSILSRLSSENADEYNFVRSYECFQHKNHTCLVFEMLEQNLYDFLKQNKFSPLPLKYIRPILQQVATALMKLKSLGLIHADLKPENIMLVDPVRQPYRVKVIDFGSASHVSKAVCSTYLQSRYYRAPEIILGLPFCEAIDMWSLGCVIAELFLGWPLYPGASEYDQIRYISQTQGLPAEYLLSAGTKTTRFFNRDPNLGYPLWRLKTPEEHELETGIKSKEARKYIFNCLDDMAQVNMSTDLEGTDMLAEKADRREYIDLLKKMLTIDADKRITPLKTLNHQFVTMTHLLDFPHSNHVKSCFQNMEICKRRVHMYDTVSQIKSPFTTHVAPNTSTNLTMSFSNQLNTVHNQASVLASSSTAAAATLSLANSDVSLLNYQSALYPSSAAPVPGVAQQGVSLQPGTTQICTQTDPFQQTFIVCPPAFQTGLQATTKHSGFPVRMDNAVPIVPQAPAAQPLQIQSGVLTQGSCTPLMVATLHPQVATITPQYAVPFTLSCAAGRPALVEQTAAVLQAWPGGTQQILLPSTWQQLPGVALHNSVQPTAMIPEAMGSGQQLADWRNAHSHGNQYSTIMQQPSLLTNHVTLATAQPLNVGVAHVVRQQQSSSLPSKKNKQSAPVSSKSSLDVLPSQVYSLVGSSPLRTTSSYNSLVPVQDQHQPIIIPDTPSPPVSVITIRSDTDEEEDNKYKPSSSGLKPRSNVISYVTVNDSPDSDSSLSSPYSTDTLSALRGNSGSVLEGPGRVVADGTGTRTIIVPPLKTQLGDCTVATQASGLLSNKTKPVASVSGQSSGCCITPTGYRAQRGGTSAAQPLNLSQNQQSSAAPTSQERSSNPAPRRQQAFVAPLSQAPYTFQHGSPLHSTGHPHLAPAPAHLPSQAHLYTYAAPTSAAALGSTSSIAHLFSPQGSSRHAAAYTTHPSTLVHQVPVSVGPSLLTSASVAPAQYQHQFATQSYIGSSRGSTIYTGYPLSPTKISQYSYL
UniProt P57059: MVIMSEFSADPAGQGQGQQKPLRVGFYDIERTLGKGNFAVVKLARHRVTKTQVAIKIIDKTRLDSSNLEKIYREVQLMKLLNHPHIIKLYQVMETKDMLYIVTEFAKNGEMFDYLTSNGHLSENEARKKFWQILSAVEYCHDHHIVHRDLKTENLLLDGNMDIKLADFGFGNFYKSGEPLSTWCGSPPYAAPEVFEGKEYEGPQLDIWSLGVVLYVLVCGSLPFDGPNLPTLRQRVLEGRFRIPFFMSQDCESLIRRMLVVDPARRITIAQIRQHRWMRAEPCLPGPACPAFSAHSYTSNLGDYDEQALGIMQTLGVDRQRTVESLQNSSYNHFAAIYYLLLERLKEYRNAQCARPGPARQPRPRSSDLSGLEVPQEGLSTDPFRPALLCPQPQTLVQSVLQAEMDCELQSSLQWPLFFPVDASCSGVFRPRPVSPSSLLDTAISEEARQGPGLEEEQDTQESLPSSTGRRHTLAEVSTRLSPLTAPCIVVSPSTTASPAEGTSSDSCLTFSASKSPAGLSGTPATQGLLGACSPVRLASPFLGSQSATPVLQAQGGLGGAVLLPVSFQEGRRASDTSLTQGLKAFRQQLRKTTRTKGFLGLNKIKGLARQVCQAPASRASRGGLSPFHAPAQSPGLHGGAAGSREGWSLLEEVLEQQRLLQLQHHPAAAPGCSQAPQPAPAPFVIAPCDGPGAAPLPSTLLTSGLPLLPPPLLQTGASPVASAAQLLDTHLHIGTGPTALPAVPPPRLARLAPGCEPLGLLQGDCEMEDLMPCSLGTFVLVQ

Tests used:
Assay type in all cases: biochemical
[1] = molecular target: T1, 266 human kinases (Homo sapiens, UniProt Q8IW41); conditions: PRAK(h); 100 μM
T1 sequence (Q8IW41 1-473): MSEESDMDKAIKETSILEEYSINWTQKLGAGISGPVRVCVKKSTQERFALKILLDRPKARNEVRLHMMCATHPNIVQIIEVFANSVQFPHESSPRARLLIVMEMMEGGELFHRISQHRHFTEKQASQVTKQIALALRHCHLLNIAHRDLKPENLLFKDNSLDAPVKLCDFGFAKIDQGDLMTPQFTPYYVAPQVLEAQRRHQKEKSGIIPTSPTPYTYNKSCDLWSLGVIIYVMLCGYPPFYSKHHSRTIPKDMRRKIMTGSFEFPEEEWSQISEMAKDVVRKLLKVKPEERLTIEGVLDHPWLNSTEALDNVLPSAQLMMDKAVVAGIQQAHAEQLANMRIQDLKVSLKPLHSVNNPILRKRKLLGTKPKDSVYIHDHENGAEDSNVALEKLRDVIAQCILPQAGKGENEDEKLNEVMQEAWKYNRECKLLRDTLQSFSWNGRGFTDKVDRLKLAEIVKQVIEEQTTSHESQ
Summary of the method: (§1)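 Radiometric filter-binding format: a positively charged substrate takes up radiolabelled phosphate from ATP unless the kinase is inhibited, then is captured on a negatively charged filter membrane. Counts from scintillation are expressed relative to a 100% activity control.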

[2] = molecular target: 266 human kinases (Homo sapiens, UniProt Q86Z02); conditions: HIPK1(h); 100 μM
Summary of the method: as §1

[3] = molecular target: 266 human kinases (Homo sapiens, UniProt P57059); conditions: SIK(h); 100 μM
Summary of the method: as §1

## YARAAARQARAKALNRQLGVA (mammal) [MMI-0200]
[1]
  % activity: 115%
[2]
  % activity: 115%
[3]
  % activity: 102%
